Assay type in all cases: biochemical
The target of assay [1] is T1, human kallekrein (Homo sapiens, UniProt P03952).
T1 construct: 50 μL of 4 to 9 nM human kallekrein
The assay is described as follows: Kallikrein assay (S-2302 substrate). Conditions: [IC50 for Trypsin/IC50 for other enzyme]×100; lower = more trypsin selective. The procedure:
(§1) The specificity of the peptide aldehydes (8 through 12) was determined in vitro by measurement of their IC50 against other enzymes involved in hemostasis. A specific concentration of enzyme and its substrate were challenged with varying concentrations of inhibitor. […] Specific assay procedures used are presented below.
(§2) 96-well microtiter plates were prepared for use in these assays by incubating each well with 300 μL 1% bovine serum albumin (in deionized water) for 30 minutes at 37° C., then washing three times with deionized water.
(§3) The substrate was made up in deionized water prior to use.

Assay [2] has as its target T2, human Factor XIa (Homo sapiens, UniProt P03951).
T2 construct: 50 μL of 5 nM human Factor XIa
Briefly: Factor XIa assay (S-2366 substrate). The note with it: [IC50 for Trypsin/IC50 for other enzyme]×100; lower = more trypsin selective. The procedure:
as §1, §2, §3

The target of assay [3] is T3, Factor VIIa:rTF complex (Homo sapiens, UniProt P08709).
T3 construct: 2.5 ml 400 nMhuman Factor VIIa
The assay is described as follows: Factor VIIa assay (S-2288 substrate). The note with it: [IC50 for Trypsin/IC50 for other enzyme]×100; lower = more trypsin selective. Here is the method: (§4) The specificity of the peptide aldehydes (8 through 12) was determined in vitro by measurement of their IC50 against other enzymes involved in hemostasis. A specific concentration of enzyme and its substrate were challenged with varying concentrations of inhibitor. IC50 is that concentration of inhibitor giving 50% inhibition of substrate turnover, under the assay conditions. Specific assay procedures used are presented below.
as §2
Enzyme activity was determined using as substrate, S-2288 [D-isoleucyl-L-prolyl-L-arginine-p-nitroanilide dihydrochloride], purchased from Kabi Diagnostica. The substrate was made up in deionized water prior to use. […]
The assay was run by combining in appropriate wells 50 μL inhibitor in TBS or TBS alone and 100 μL of Factor VIIa:rTF complex or background control, incubating this mixture for 30 minutes at room temperature, adding 50 μL of 2 mM S-2288, incubating for an additional 30 to 60 minutes at room temperature, then reading the absorbance of the wells at 405 nm on a microtiter plate reader set with background substraction at 650 nm.

The target in assay [4] is T4, human Factor Xa (Homo sapiens, UniProt P00742).
T4 construct: 50 μL 30 nM human Factor Xa
The assay is described as follows: Factor Xa assay (Pefachrome Xa substrate). The note with it: [IC50 for Trypsin/IC50 for other enzyme]×100; lower = more trypsin selective. Here is the method: as §1, §2
Enzyme activity was determined using as substrate, Pefachrome Xa [N-methoxycarbonyl-D-cyclohexylalanyl-L-glycyl-L-arginine p-niroanilide acetate], purchased from Centerchem, Inc. The substrate was made up in deionized water prior to use.

Assay [5] deals with T5, bovine thrombin (Bos taurus, UniProt P00735).
T5 construct: 50 μL 20 nM bovine thrombin
The assay is described as follows: Thrombin assay (S-2238 substrate). The note with it: [IC50 for Trypsin/IC50 for other enzyme]×100; lower = more trypsin selective. Here is the method:
as §4, §2
Enzyme activity was determined using as substrate, S-2238 [D-phenylalanyl-L-pipecolyl-L-arginine-p-nitroanilide dihydrochloride], purchased from Kabi Diagnostica. The substrate was made up in deionized water prior to use.
The assay was run by combining in appropriate wells 50 μL TBS and 50 μL inhibitor in TBS or TBS alone and 50 μL 20 nM bovine thrombin (or TBS as background control), incubating this mixture for 30 minutes at room temperature, adding 50 μL 1 mM S-2238, incubating for an additional 30 minutes at room temperature, then reading the absorbance of the wells at 405 nm on a microtiter plate reader set with background substraction at 650 nm.

The target in assay [6] is T6, Activated human Protein C (Homo sapiens, UniProt P04070).
T6 construct: from tissue
The assay is described as follows: Protein C assay (Pefachrome PC substrate). The note with it: [IC50 for Trypsin/IC50 for other enzyme]×100; lower = more trypsin selective. The procedure:
as §1, §2
Enzyme activity was determined using as substrate, Pefachrome PC [δ-carbobenzoloxy-D-lysyl-L-prolyl-L-arginine-p-nitroanilide], purchased from Centerchem, Inc. The substrate was made up in deionized water prior to use. Protac used to activate Protein C was obtained from American Diagnostics.

Assay [7] concerns the target recombinant tissue plasminogen activator (Homo sapiens, UniProt P00750). Briefly: Tissue plasminogen activator assay (S-2288 substrate). Conditions: [IC50 for Trypsin/IC50 for other enzyme]×100; lower = more trypsin selective. Here is the method: as §1, §2, §3
Assay [8] deals with T7, human urokinase (Homo sapiens, UniProt P00749).
T7 construct: 50 μL of 270 U/mL human urokinase
Briefly: Urokinase assay (S-2444 substrate). The note with it: [IC50 for Trypsin/IC50 for other enzyme]×100; lower = more trypsin selective. Here is the method: as §4, §2
Enzyme activity was determined using as substrate S-2444 [L-pyroglutamyl-L-glycyl-L-arginine-p-nitroanilide hydrochloride], purchased from Kabi Diagnostica. The substrate was made up in deionized water prior to use.
The assay was run by combining in appropriate wells 50 μL inhibitor in TBS or TBS alone and 50 μL of 270 U/mL human urokinase (or TBS as background control) and 50 μL TBS, incubating this mixture for 30 minutes at room temperature, adding 50 μL 1 mM S-2444, incubating for an additional 30 minutes at room temperature, then reading the absorbance of the wells at 405 nm on a microtiter plate reader set with background substraction at 650 nm.

Assay [9] deals with T8, bovine trypsin (Bos taurus, UniProt P00760).
T8 sequence (P00760 24-246): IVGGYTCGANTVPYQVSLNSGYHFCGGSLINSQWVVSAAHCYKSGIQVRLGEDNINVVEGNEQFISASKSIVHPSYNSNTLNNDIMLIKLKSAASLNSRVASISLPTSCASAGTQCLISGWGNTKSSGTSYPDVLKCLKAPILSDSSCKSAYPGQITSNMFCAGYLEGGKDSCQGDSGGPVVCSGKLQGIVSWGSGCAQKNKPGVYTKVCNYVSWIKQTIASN
The assay is described as follows: Trypsin assay, IC50 (S-2222 substrate). Conditions: trypsin relative to itself (reference, 100 by definition). Here is the method: as §1, §2, §3

For assay [10], the target named is plasmin (Homo sapiens, UniProt P00747). The assay is described as follows: Plasmin assay (S-2251 substrate). Further details: 50 μL 25 nM human plasmin. Conditions: [IC50 for Trypsin/IC50 for other enzyme]×100; lower = more trypsin selective. The procedure:
as §1, §2, §3

A value given as a limit tells only on which side of the number the result lay.

Regarding `CC(=O)N[C@@H](CC(C)C)C(=O)N[C@@H](CC(C)C)C(=O)N[C@H](C=O)CCCNC(=N)N` [Leupeptin, reference compound], the “Calculated % Selectivity Kallikrein” value in assay [1] is 43%. The “Calculated % Selectivity XIa” value in assay [2] is on record as 15%. The “Calculated % Selectivity VIIa” value in [3] is recorded as less than 6.8%. Besides, the “Calculated % Selectivity Xa” value in assay [4] is 6.8%. In assay [5], the “Calculated % Selectivity Thrombin” value was 8.5%. In [6], the “Calculated % Selectivity Protein C” value is reported as less than 6.8%. Also, the “Calculated % Selectivity tPA” value in [7] was 0%. The “Calculated % Selectivity UK” value in [8] is on record as 0%. Further, the “Calculated % Selectivity Trypsin” value in assay [9] is given as 100%. Also, in assay [10], the “Calculated % Selectivity Plasmin” value is 21%.

The values above are taken from patent publication US5534498A, “Trypsin inhibitors” (Corvas International, Inc., priority 1993, dated 1996).
